This is a selection; strong and weak results do not stand in their true shares. Results filed as inconclusive are left out. The source made the active and inactive calls. The call rests on the fitted dose curve; in most records, active means well fitted inhibition curve with a large enough effect in the polarisation, with a control signal flat (not every such curve was filed as active); inconclusive means small, poorly fitted or top-dose-only effect, or effect the other way, or a change in a side signal; inactive means no such curve, though single readings can be large or run the other way; the % refers to the polarisation.

By UniProt entry, the sequences of proteins in these tests, tags left out.
UniProt O00255, whole entry, looked up: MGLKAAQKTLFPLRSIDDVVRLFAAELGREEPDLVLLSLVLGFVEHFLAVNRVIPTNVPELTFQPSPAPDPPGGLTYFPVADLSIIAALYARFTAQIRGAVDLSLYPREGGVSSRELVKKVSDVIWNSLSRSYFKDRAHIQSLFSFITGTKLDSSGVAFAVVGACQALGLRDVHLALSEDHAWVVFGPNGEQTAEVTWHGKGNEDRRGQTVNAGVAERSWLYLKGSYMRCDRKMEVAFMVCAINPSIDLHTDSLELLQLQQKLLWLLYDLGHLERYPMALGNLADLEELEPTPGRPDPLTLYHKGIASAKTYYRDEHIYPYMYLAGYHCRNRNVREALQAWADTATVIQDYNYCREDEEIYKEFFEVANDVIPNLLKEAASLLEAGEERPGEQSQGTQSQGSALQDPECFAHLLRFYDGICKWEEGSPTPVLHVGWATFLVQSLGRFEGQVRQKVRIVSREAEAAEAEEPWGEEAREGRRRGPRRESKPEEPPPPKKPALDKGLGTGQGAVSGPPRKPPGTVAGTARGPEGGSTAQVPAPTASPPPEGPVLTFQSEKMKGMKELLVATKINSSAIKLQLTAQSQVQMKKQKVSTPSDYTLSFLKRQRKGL

This assay concerns the target Menin (Homo sapiens) (UniProt O00255). In words: qHTS Assay for Inhibitors Targeting the Menin-MLL Interaction in MLL Related Leukemias: Competition With Texas Red Labeled MLL-derived Mutant Peptide. Further: % of control where 0% means no effect. The following applies: fluorescence polarization; at 61.6 µM (top of the series) unless noted. (In qHTS, concentration-response curves come from the screen itself.)
In the case of `CN(C(=O)Cc1ccc(Cl)c(Cl)c1)[C@@H]1CC[C@]2(CCCO2)C[C@H]1N1CCCC1`, the FP activity change, negative = inhibition is inactive: -10.5%.
The figure for `Cc1cccc(OCC(=O)OC2CN3CCC2CC3)c1` (stereo not drawn) is inactive: 11.5%; for `O=[N+]([O-])CC(O)c1ccc([N+](=O)[O-])cc1` (stereo not drawn) it is inactive: 9.19%; for `NC(=O)Nc1ccc([As](=O)(O)O)cc1` it is inactive: -0.0325% [at 24.8 µM].
The figure for `O=[N+]([O-])c1ccc2c(c1)nnn2O` is inactive: 0.432%; for `CCOP1(=S)c2c(C)nn(CCC#N)c2N=C(c2ccc(F)cc2)N1C` (stereo not drawn) it is inactive: 6.12%.
The figure for `O=P(Nc1nccs1)(c1ccccc1)c1nc2ccccc2s1` (stereo not drawn) is inactive: -15.9%.
As to `CCOP1(=S)c2c(C)nn(CCC#N)c2N=C(c2ccccc2F)N1C` (stereo not drawn), the FP activity change, negative = inhibition was inactive: -15.3%.
The figure for `ClCCSc1nnc(-c2cccnc2)o1` is inactive: -27.1%.
The figure for `CC(C)NC(=O)NP(=O)(Oc1ccccc1)Oc1ccccc1` is inactive: -7.18%; for `CCN(CC)C(=S)SC(NC=O)C(Cl)(Cl)Cl` (stereo not drawn) it is inactive: -3.02%.
The figure for `C[As](=O)(O)c1cccc(C(=O)O)c1` is inactive: 12.6%; for `Cc1ccc2nc3c(c(C)c2c1)CC(C(Cl)Cl)S3` (stereo not drawn) it is inactive: -6.43%.
Consider `Cc1ccc(OP(=O)(Nc2ccc([N+](=O)[O-])cn2)Oc2ccc(C)cc2)cc1`, for which the FP activity change, negative = inhibition is inactive: -1.92%.
The figure for `Cc1cc(=O)[nH]c(N[N+](=O)[O-])n1` is inactive: -27.4%; for `O=C(OC1CN2CCC1CC2)C12CC3CC(CC(C3)C1)C2` (stereo not drawn) it is inactive: -0.255% [at 11.7 µM].
The figure for `Cc1c2c(nc3ccccc13)SC(C(Cl)Cl)C2` (stereo not drawn) is inactive: 12%; for `COc1ccc2nc(NP(=O)(c3ccccc3)c3ccccc3)sc2c1` it is inactive: -1.89%; for `O=C(OC1CN2CCC1CC2)c1cccc([N+](=O)[O-])c1` (stereo not drawn) it is inactive: 35.3%.
For the compound `CCC(C)N(CC(C)C)C(=S)SC(NC(C)=O)C(Cl)(Cl)Cl` (stereo not drawn), the FP activity change, negative = inhibition was inactive: -1.73%.
The figure for `COP1(=S)c2c(C)nn(CCC#N)c2N=C(c2ccc(F)cc2)N1C` (stereo not drawn) is inactive: -9.28%; for `O=C(Nc1ccncc1[N+](=O)[O-])c1ccc([N+](=O)[O-])cc1[N+](=O)[O-]` it is inactive: 11.7%.
The figure for `O=C(COc1ccccc1)OC1CN2CCC1CC2` (stereo not drawn) is inactive: 9.89%.
The figure for `CCOC(=O)Nc1cccc([As](=O)(O)O)c1` is inactive: 19%.
Turning to `Cc1cc(SC(NC=O)C(Cl)(Cl)Cl)ncn1` (stereo not drawn), the FP activity change, negative = inhibition is inactive: -7.57%.
The figure for `O=P(Nc1ccccn1)(c1cccc2ccccc12)c1cccc2ccccc12` is inactive: -17.7%.
The figure for `Cc1cc(SC(NC(=O)c2ccccc2)C(Cl)(Cl)Cl)nc(C(C)C)n1` (stereo not drawn) is inactive: -25%; for `CCCCOc1ccc(C(=O)NCC2(N3CCCCC3)CCCCC2)cc1OC` it is inactive: -15%.

These data come from PubChem BioAssay AID1768 (National Center for Advancing Translational Sciences (NCATS), 2009).
